{
  "source": "patent US20050239758A1",
  "about": "“Hormone treatment of multiple sclerosis” (priority 2004, published 2005)",
  "key": {"serum anti-estrogen IgG": {"tested_on": "serum anti-estrogen IgG", "test": "Competition ELISA: absorption of serum anti-estrogen IgG with specific and non-specific antigens", "assay_type": "binding, human", "details": "result in words", "protocol": "(§1) Enzyme-linked immunosorbent assay (ELISA) was used for testing antibodies against estrogen and progesterone in the sera of patients with premenstrual asthma and with control subjects. Different rows of microtiter plates (Costar) were coated either with 100 μl of BSA concentration of 10 μg/mL or 100 μl of estrogen-BSA or progesterone-BSA optimal concentration of 10 μg/mL in 0.1 m carbonate-bicarbonate buffer (pH 9.5). Plates were incubated overnight at 4° C. and then washed three times with […] of Tris-buffered saline (TBS) containing 0.05% Tween 20, pH 7.4. […] Plates were washed with PBS-Tween 20 and then 100 μl of control or patient's serum was added to duplicate wells coated either with BSA alone or with estrogen or progesterone bound to BSA. […] Plates were incubated for 2 h (for IgG and IgM) and overnight (for IgE), and then washed four times with PBS-Tween 20. Alkaline-phosphatase-conjugated goat anti-human IgG, IgM or IgE F(ab′)2 fragment at optimal dilution of 1:700 (IgG); 1:500 (IgM) and 1:250 (IgE) was added to corresponding wells. The plates were then incubated for an additional 2 h at room temperature. […] The optical density was read at 405 nm (OD405) with a microtiter reader. […]\n(§2) For this, microtiter plates were coated with hormones and blocked by the addition of 2% BSA in PBST. […] Results were calculated as a percentage of inhibition in antigen-antibody reaction. […]"}, "serum anti-estrogen IgE": {"tested_on": "serum anti-estrogen IgE", "test": "Competition ELISA: absorption of serum anti-estrogen IgE with specific and non-specific antigens", "assay_type": "binding, human", "details": "result in words", "protocol": "as §1, §2"}},
  "data": [
    {"substance": "human serum albumin [HSA]", "values": [
      {"measurement": "Absorption of serum IgG antibodies by antigen added to the liquid phase", "setting": "serum anti-estrogen IgG", "result": "did not absorb"},
      {"measurement": "Absorption of serum IgE antibodies by antigen added to the liquid phase", "setting": "serum anti-estrogen IgE", "result": "did not absorb"}
    ]}
  ]
}
